# Literature values in patent US6124256A, “Method for the prevention of a patient's fibroproliferative vasculopathy” (priority 1998, dated 2000).
# Amino acid sequences for entries named in this document (tags omitted). A change or cut given only in a name is not applied to a line headed by its entry.
# UniProt P30872: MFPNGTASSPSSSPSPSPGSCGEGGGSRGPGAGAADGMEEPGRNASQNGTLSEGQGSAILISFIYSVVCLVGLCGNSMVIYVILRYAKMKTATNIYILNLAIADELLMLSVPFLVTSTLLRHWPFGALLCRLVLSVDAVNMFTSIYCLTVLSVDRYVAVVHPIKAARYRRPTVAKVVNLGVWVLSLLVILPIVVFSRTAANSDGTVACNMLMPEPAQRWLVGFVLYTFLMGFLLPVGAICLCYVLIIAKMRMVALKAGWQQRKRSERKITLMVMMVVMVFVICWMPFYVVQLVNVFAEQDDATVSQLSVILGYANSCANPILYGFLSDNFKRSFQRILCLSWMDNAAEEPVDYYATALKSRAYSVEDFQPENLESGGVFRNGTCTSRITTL
# UniProt P35346: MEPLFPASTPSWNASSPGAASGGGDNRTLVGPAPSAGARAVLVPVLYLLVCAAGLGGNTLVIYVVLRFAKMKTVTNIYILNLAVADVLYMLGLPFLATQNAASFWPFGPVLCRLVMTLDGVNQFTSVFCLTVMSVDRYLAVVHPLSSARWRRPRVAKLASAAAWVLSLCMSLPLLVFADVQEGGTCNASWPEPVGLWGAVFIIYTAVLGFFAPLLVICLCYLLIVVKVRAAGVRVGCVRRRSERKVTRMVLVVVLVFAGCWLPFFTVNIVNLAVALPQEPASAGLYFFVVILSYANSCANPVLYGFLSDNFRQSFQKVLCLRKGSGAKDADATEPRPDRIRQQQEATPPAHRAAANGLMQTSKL
# UniProt P32745: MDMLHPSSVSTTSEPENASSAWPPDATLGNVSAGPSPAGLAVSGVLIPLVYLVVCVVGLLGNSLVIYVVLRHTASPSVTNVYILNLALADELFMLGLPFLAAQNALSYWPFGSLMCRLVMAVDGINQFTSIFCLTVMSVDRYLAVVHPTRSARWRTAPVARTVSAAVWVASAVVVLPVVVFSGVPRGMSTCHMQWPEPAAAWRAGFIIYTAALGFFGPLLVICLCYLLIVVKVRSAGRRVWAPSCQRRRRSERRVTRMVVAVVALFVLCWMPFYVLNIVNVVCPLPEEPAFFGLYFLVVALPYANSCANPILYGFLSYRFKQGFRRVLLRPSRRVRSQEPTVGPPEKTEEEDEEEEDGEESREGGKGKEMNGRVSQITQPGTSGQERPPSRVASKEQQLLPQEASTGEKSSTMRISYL
# UniProt P31391: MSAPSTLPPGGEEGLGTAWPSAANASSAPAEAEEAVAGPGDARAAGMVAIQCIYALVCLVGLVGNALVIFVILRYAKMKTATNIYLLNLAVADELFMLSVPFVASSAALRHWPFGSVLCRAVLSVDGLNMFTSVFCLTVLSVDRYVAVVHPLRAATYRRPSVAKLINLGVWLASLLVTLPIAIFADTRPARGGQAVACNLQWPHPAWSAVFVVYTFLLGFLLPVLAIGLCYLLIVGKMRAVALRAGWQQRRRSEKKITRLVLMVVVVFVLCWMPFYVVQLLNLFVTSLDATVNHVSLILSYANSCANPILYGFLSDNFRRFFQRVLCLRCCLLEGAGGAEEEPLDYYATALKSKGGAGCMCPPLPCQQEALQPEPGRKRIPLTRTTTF
# UniProt P30874: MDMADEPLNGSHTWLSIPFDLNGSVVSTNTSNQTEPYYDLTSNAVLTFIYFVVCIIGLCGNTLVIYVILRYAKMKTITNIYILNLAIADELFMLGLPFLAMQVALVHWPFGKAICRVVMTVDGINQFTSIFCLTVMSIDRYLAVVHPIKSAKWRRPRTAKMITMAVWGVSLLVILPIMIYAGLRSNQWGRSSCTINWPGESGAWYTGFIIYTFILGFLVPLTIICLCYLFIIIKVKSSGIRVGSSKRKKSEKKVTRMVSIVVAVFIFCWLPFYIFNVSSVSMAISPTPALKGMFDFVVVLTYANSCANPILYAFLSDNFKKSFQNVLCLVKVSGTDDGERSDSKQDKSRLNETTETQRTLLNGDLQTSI
# How the values were obtained:
# hSSTR1 = biological target: T1, hSSTR1 (Homo sapiens, UniProt P30872); settings: human receptor in transfected CHO cell lines; read-out: binding affinities Ki hSSTR1
# T1 construct: expressed in transfected cells; host or cells: CHO
# hSTR5 = biological target: T2, hSTR5 (Homo sapiens, UniProt P35346); settings: human receptor in transfected CHO cell lines; read-out: binding affinities Ki hSTR5
# T2 construct: expressed in transfected cells; host or cells: CHO
# hSSTR3 = hSSTR3 (Homo sapiens, UniProt P32745); set-up: expressed in transfected cells; host or cells: CHO; settings: human receptor in transfected CHO cell lines; read-out: binding affinities Ki hSSTR3
# hSSTR4 = biological target: T3, hSSTR4 (Homo sapiens, UniProt P31391); settings: human receptor in transfected CHO cell lines; read-out: binding affinities Ki hSSTR4
# T3 construct: expressed in transfected cells; host or cells: CHO
# SSTR2 = SSTR2 (Homo sapiens, UniProt P30874); set-up: expressed in transfected cells; host or cells: CHO; settings: human receptor in transfected CHO cell lines; read-out: binding affinities Ki hSSTR2
substance,measurement,setting,value
somatostatin SRIF-28 [Somatostatin (SRIF-28)],Ki,hSSTR1,2.2 nM
same,Ki,hSTR5,0.07 nM
same,Ki,hSSTR3,6.1 nM
same,Ki,hSSTR4,1.1 nM
same,Ki,SSTR2,4.1 nM
